Tests used:
[1] = Supplementary Table S1; cited from earlier work
[2] = WHO adverse drug reactions VigiBase; ref Kumlien and Lundberg, 2010; cited from earlier work
[3] = seizure ADR frequency in SIDER; ref Campillos et al., 2008; Kuhn et al., 2010; cited from earlier work
[4] = ref National library of medicine, Daylimed; cited from earlier work
[5] = established from VigiBase, SIDER, Elsevier drug information and FDA prescribing information

| SMILES | Free Cmax highest [1] [nM] | Percentage seizures of total number of ADRs [2] [%] | SIDER ADR on-/off-label [3] | FDA prescription information at therapeutic dose (Convulsion/ Seizure/Lower the seizure threshold/withdrawal) [4] | Classification* (degree of seizure risk) [5] |
| --- | --- | --- | --- | --- | --- |
| Cc1cc2c(s1)Nc1ccccc1N=C2N1CCN(C)CC1 [Olanzapine] | 18 | 1.656 | postmarketing, rare | not found on label |  |
| CN1c2ccccc2C(NCCCCCCC(=O)O)c2ccc(Cl)cc2S1(=O)=O (stereo not shown) [Tianeptine] |  | 0.8983 |  |  | Low risk |
| Cn1c(=O)c2[nH]cnc2n(C)c1=O [Theophylline] |  |  | 3% - 21% | on label | Risk |
| CC(C)C[C@H](CN)CC(=O)O [Pregabalin] |  |  | infrequent (0.1-1%) |  |  |

From publication PMC11170107, “Development of a new hazard scoring system in primary neuronal cell cultures for drug-induced acute neuronal toxicity identification in early drug discovery” (Frontiers in Pharmacology, 2024)
